Source: ChEMBL document CHEMBL4814005, “Pragmatic recruitment of memantine as the capping group for the design of HDAC inhibitors: A preliminary attempt to unravel the enigma of glioblastoma” (Eur J Med Chem, 2021)

Sequences of proteins named here, by UniProt entry; tags and fusion partners are left off.
UniProt Q13547, whole entry: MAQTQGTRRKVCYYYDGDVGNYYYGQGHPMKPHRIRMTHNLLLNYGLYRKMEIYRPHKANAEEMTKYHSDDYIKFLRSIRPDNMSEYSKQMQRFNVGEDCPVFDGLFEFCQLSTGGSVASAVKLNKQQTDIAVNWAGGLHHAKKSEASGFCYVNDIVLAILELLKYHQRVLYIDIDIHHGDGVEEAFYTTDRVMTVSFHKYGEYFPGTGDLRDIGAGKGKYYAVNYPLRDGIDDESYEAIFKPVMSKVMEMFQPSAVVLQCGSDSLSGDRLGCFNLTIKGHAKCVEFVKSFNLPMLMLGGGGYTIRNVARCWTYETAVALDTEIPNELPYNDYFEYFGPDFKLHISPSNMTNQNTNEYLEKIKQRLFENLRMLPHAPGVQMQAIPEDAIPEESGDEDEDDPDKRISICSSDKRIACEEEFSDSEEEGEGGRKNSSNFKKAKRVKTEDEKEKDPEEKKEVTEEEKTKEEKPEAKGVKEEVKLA

Target: Histone deacetylase 1 (Homo sapiens, UniProt Q13547)
Assay: Inhibition of human recombinant HDAC1 expressed in baculovirus infected insect cells using [RHKK(Ac)] fluorogenic substrate

Q: With `CC12CC3CC(C)(C1)CC(NCc1ccc(/C=C/C(=O)NO)cc1)(C3)C2` as the compound, how does the IC50 read?
A: 1.33 µM
